Test results from US7612056B2, “Substituted diaza-spiro-[4.5]-decane derivatives and their use as neurokinin antagonists” (Jenssen Pharmaceutica N.V., priority 2005, dated 2009).

Protein sequences, listed by entry. Tags and fused reporters are not part of them.
UniProt P25103, whole entry: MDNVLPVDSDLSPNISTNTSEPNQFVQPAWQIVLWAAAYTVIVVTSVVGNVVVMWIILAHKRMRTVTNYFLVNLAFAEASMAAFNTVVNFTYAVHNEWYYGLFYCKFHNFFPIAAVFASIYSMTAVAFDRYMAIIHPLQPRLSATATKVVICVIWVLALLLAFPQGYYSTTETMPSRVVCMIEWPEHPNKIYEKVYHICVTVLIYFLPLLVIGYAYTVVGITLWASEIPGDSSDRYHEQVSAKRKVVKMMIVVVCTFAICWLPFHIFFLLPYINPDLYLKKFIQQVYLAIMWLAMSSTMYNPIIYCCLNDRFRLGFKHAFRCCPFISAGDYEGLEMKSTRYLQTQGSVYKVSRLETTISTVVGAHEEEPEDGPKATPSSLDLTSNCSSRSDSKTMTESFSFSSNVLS
UniProt P21452, whole entry: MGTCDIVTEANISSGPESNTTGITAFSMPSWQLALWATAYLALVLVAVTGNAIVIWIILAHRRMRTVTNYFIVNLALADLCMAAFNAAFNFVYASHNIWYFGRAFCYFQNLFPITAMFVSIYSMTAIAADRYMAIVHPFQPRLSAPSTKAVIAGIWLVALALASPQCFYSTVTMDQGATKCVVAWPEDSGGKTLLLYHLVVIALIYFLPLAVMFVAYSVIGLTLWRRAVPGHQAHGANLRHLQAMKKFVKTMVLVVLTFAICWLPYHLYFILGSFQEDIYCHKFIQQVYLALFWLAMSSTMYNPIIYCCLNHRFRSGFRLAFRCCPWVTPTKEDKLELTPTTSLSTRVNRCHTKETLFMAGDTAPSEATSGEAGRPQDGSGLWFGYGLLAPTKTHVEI
UniProt P29371, whole entry: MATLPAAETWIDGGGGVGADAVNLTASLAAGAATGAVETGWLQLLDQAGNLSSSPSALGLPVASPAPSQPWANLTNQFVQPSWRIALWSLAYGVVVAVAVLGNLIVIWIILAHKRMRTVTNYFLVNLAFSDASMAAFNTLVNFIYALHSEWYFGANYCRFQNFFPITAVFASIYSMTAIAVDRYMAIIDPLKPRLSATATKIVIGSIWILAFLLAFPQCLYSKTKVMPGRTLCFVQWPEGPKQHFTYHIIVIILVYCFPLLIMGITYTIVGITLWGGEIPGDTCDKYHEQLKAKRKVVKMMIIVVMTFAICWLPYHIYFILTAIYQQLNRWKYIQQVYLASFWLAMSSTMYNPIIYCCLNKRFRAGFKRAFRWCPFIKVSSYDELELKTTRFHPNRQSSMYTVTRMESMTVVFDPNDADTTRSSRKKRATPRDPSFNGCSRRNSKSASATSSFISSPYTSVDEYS

Experiments:
Conditions in all cases: antagonist, Ca++ transient peak
[1] = target: NK1 (Homo sapiens, UniProt P25103); test: Signal transduction (ST), intracellular Ca++ (FLIPR), NK1
Protocol: This test evaluates in vitro functional NK1 antagonistic activity. For the measurements of intracellular Ca^++ concentrations the cells were grown on 96-well (black wall/transparent bottom) plates from Costar for 2 days until they reached confluence. The cells were loaded with 2 μM Fluo3 in DMEM containing 0.1% BSA and 2.5 mM probenecid for 1 h at 37° C. They were washed 3× with a Krebs buffer (140 mM NaCl, 1 mM MgCl2×6H2O, 5 mM KCl, 10 mM glucose, 5 mM HEPES; 1.25 mM CaCl2; pH 7.4) containing 2.5 mM probenecid and 0.1% BSA (Ca^++-buffer). The cells were preincubated with a concentration range of antagonists for 20 min at RT and Ca^++-signals after addition of the agonists were measured in a Fluorescence Image Plate Reader (FLIPR from Molecular Devices, Crawley, England). The peak of the Ca^++-transient was considered as the relevant signal and the mean values of corresponding wells were analysed as described below.
The sigmoidal dose response curves were analysed by computerised curve-fitting, using the GraphPad Program. The EC50-value of a compound is the effective dose showing 50% of maximal effect. For mean curves the response to the agonist with the highest potency was normalised to 100%. For antagonist responses the IC50-value was calculated using non-linear regression. […]

[2] = target: NK2 (Homo sapiens, UniProt P21452); test: Signal transduction (ST), intracellular Ca++ (FLIPR), NK2
[3] = target: NK3 (Homo sapiens, UniProt P29371); test: Signal transduction (ST), intracellular Ca++ (FLIPR), NK3

Structure (SMILES) | pIC50 NK1 [1] | pIC50 NK2 [2] | pIC50 NK3 [3]
O=C(c1cc(C(F)(F)F)cc(C(F)(F)F)c1)N1CC[C@@H](N2CCC3(CC2)CCN(S(=O)(=O)c2cccs2)C3)C[C@H]1Cc1ccccc1 | 6.51 | <5 | <5
O=C(c1ccoc1)N1CCC2(CC1)CCN([C@H]1CCN(C(=O)c3cc(C(F)(F)F)cc(C(F)(F)F)c3)[C@H](Cc3ccccc3)C1)C2 | 7.15 | 5.65 | 5.68
